{"sequences": {"note": "Chains of the proteins cited; added tags and fusions are not shown. Residues count along the entry.", "UniProt P43220, 24-463 limits assumed": "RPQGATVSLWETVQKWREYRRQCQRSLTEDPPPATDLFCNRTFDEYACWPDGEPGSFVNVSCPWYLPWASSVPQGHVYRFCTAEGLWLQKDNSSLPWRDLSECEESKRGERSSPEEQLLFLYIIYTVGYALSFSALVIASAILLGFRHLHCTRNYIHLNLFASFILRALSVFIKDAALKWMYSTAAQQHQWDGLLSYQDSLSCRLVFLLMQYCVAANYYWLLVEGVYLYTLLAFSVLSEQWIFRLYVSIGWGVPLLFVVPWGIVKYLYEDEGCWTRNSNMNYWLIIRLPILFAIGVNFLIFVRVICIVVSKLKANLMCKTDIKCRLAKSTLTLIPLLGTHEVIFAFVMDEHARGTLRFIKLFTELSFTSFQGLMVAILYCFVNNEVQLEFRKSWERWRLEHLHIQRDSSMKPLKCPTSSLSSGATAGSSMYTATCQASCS"}, "source": "patent US20170327577A1", "about": "“METHODS OF CONSTRUCTING AMINO TERMINAL IMMUNOGLOBULIN FUSION PROTEINS AND COMPOSITIONS THEREOF” (The California Institute for Biomedical Research, priority 2014, published 2017)", "key": {"[1]": {"molecular_target": "GLP-1 receptor (UniProt P43220)", "test": "cell-based or functional assay"}, "[2]": {"molecular_target": "glucagon receptor (UniProt P47871)", "test": "cell-based or functional assay"}}}
{"substance": "palivizumab(NL, EAAAK)-glucagon(2S) and pPalivizumab(NH, GGGGS1)-exendin-4", "values": [{"measurement": "EC50, CRE-luciferase reporter in HEK293 cells", "setting": "[1]", "value": 0.013, "unit": "nM"}, {"measurement": "EC50, CRE-luciferase reporter in HEK293 cells", "setting": "[2]", "value": 0.033, "unit": "nM"}]}
